Measurements taken from US20150258139A1, “METHODS FOR TREATMENT OF CANCER USING LIPOPLATIN” (REGULON, INC., priority 2012, published 2015).

System: F98 glioma tumor
Assay: Mean survival time and toxicity of F98 glioma bearing Fischer rats treated with platinum drugs alone
Assay type: in vivo
Conditions: IV

## Cisplatin
  toxicity observed in animals: too toxic for the animal
